Literature values, collected in patent US20190219580A1, “METHODS OF DRUG THERAPY SELECTION FOR BREAST CANCER PATIENTS BASED ON HER2 AND HER3 PATHWAY SUBTYPING” (Nestec S.A., priority 2016, published 2019).

What was measured:
[1] = tested on: HER2-positive, operable breast cancer; conditions: trastuzumab incorporated into adjuvant AC→paclitaxel
[2] = tested on: HER2-positive breast cancer; conditions: with epirubicin, cyclophosphamide followed by docetaxel (EC-DOC), n=620
[3] = tested on: HER2-positive, locally advanced disease without previous treatment

## trastuzumab
[1]
  improvement in disease-free survival (DFS): 52%
BT474 cell lines
  HER2 receptor phosphorylation or downstream signaling events: failed to completely inhibit
[2]
  pCR rate (no invasive disease in breast): 50%
[3]; patients with low PTEN expression and PI3 kinase mutation
  pCR rate: 18%
[3]; single agent first, followed by trastuzumab/docetaxel ×4 cycles
  pCR rate: 34%

Like-named read-outs stand apart in the source and are kept apart here.
